{"source": "patent US4677129A", "about": "“Substituted-3-azabicyclo[3.1.1]heptane-2,4-diones useful for treating hormone-dependent diseases” (Ciba-Geigy Corporation, priority 1984, dated 1987)", "tested_on": "aromatase", "settings": "human placental microsomes"}
{"smiles": "CCCN1C(=O)C2CC(c3ccc(N)cc3)(C2)C1=O", "note": "[Example 1, 1-(4-aminophenyl)-3-n-propyl-3-azabicyclo[3.1.1]heptane-2,4-dione]", "values": [{"measurement": "enzyme activity (NADPH content), read as content of water having radioactive tritium isotopes", "setting": "[1β,2β-3H]-testosterone substrate, compared with measurements made without addition of compound", "value": "substantially reduces the enzyme activity"}, {"measurement": "reduction in enzyme activity compared with other known aromatase inhibitors, for example aminoglutethimide", "setting": "comparison measurements at the same concentrations, comparator aminoglutethimide", "value": "substantially greater"}]}
